Our source for the Kd values is paper PMC4841940 (Molecular cell, 2016).

The assay addresses second bromodomain of TAF1. Put plainly: ITC.

For orientation: Kd means the concentration at which binding is half-saturated. A higher Kd goes with lower affinity. “H4K5acK8ac peptide (the H4 acetylation counterpart of H4K5crK8cr)” had a Kd of 52 µM.

H4K5crK8cr peptide yielded a Kd of 117 µM.
